Laboratory results from ChEMBL document CHEMBL4406897 (Bioorg Med Chem, 2019).

test system: Plasmodium falciparum; test: Ratio of compound Ki to pyrimethamine Ki for competitive inhibition of wild type Plasmodium falciparum dihydrofolate reductase expressed in Escherichia coli BL21(DE3)pLysS using dihydrofolate as substrate

Row | Structure (SMILES) | Ratio Ki
1 | Cl.Nc1nc(N)c(-c2ccccc2)c(CCCCCOc2ccccc2)n1 | 0.5
2 | Cl.Nc1nc(N)c(-c2cccc(Cl)c2)c(CCCOc2ccccc2)n1 | 0.4
3 | Cl.Nc1nc(N)c(-c2ccccc2)c(CCCCOc2cccc(OCC(=O)O)c2)n1 | 0.83
